Experimental data as given in US12297197B2, “Pyrazolopyridine compound as RET inhibitor and application thereof” (GUANGZHOU BAIYUNSHAN PHARMACEUTICAL HOLDINGS CO., LTD. …, priority 2019, dated 2025).
Read-outs that look alike come from different tables or passages of the source.

By UniProt entry, the sequences of proteins in these tests, tags left out. Where a name states a change or a piece, a line headed by the entry shows the natural chain unless it says otherwise. Residues count along the entry.
UniProt P07949, 29-1114 limits assumed: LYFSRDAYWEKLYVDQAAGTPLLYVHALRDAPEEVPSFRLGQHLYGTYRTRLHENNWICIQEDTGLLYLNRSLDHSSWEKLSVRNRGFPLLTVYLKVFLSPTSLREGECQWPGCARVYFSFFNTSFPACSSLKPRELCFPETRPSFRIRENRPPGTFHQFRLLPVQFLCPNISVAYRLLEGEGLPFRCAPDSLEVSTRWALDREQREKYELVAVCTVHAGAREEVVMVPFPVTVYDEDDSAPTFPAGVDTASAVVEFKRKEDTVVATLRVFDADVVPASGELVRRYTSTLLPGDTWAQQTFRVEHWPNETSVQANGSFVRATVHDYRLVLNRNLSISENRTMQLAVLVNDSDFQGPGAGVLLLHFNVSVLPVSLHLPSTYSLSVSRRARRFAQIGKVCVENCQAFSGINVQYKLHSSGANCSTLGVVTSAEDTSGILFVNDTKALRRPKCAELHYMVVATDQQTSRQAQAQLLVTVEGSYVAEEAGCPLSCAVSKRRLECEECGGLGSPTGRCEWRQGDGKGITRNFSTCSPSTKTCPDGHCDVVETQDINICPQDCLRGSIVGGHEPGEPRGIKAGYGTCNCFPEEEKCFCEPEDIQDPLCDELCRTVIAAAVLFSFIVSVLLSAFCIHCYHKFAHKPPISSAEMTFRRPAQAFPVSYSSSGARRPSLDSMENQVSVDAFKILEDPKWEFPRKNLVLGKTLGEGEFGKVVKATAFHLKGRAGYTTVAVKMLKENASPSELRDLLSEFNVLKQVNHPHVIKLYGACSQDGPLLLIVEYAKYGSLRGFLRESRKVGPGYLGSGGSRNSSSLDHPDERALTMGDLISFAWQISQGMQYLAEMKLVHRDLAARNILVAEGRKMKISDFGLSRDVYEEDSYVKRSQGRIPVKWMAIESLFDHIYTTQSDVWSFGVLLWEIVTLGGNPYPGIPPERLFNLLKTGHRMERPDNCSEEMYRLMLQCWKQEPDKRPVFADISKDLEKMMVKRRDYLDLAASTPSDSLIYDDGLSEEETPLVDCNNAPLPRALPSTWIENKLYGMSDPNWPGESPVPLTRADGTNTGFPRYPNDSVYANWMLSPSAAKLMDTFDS
UniProt P07949, 29-1114 V804M limits assumed: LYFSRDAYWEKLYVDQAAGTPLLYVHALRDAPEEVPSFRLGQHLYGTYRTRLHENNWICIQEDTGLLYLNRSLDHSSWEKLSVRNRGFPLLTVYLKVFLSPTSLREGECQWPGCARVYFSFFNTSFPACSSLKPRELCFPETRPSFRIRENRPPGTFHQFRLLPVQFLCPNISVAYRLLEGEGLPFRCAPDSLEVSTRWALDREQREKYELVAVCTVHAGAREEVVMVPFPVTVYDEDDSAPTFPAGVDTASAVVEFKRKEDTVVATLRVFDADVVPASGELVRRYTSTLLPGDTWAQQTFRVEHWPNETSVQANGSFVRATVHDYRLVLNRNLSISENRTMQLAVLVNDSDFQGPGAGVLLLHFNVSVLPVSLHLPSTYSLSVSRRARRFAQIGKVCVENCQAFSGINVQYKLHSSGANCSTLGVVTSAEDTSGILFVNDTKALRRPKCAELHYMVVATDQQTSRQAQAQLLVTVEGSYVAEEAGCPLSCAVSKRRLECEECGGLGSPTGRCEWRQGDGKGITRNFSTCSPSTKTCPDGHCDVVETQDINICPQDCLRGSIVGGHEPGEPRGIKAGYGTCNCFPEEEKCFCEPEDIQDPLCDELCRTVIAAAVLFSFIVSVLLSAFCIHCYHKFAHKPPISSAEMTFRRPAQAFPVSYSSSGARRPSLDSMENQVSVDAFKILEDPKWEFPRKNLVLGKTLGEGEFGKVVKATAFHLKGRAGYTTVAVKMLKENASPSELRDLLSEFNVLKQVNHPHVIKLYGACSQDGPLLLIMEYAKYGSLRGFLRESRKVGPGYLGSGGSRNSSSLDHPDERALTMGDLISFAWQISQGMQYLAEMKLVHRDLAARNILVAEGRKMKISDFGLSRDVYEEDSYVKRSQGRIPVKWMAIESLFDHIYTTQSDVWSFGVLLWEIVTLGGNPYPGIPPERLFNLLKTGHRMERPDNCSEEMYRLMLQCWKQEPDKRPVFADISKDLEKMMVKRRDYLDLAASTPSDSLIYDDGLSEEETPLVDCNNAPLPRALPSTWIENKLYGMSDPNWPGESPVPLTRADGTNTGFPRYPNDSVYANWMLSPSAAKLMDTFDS

Tests used:
[1] = target: RET kinase (Homo sapiens, UniProt P07949); assay: In-vitro enzyme activity test, RET kinase; conditions: read-out: RET kinase IC50, ATP 20 μM, 10 concentrations 3 μM to 0.152 nM
Method: (§1) The enzyme activity was detected by a Z′-LYTE™ kinase test, and inhibitory effects of the compounds onRET and RET (V804M) kinases were evaluated with an ICs value of each compound as an index.
(§2) The compounds used for RET and RET (V804M) kinase tests were diluted 3-fold, in 10 concentration gradients ranging from 3 μM to 0.152 nM; and the content of DMSO in detection reaction was 1%.
(§3) Basic reaction buffer, 20 mM 4-(2-hydroxyethyl)piperazine-1-ethanesulfonic acid (Hepes) buffer (pH 7.5), 10 mM MgCl2. 1 mM 1,2-bis[2-[bis(carboxymethyl)amino]ethoxy]ethane (EGTA), 0.02% polyoxyethylene lauryl ether (Brij35), 0.02 mg/mL bovine serum albumin, 0.1 mM of Na3VO4, 2 mM dithiothreitol (DTT) and 1% DMSO.
(§4) The compounds to be tested were dissolved in a 100% DMSO system to be diluted to 10 mM for further use. The solution was diluted by using Integra Viaflo Assist.
(§5) Test conditions: concentrations of RET kinase, peptide substrate CHKtide and adenosine triphosphate (ATP) were […], 1000 μM and 20 μM, respectively, and concentrations of RET (V804M) kinase, substrate peptide and ATP were […], 1000 μM and 30 μM, respectively.
(§6) Reaction process: compound solutions of different concentrations were added to a kinase/peptide solution prepared according to the test conditions, the obtained solution was incubated at room temperature for 20 minutes, and then 33P-ATP of corresponding concentrations were added, and the obtained solution was incubated at room temperature for 120 minutes. The radioactivity was detected by a filter-binding method.
(§7) The reaction was terminated by adding phosphoric acid (concentration, 0.5%) into a kinase reaction solution, and plate reading was carried out with an Envision instrument.
(§8) Data were converted into phosphorylation rate and inhibition rate, and the parametric curve was fitted by using GraphPad Software to obtain IC50 data of the compounds.

[2] = target: RET (V804M) kinase (Homo sapiens, UniProt P07949, V804M); assay: In-vitro enzyme activity test, RET (V804M) kinase; conditions: read-out: RET V804M IC50, ATP 30 μM, 10 concentrations 3 μM to 0.152 nM
Method: as §1, §2, §3, §4, §5, §6, §7, §8

Compound: Cn1ccc2cc(CN3C4CC3CN(c3ccc(-c5cc(C6=CCOCC6)cn6ncc(C#N)c56)cn3)C4)cnc21
- IC50 ([1]; tested form: TFA): 3.9 nM

Compound: COc1ccc(CN2C3CC2CN(c2ccc(-c4cc(C5=CCCOC5)cn5ncc(C#N)c45)cn2)C3)cn1
- IC50 [1]: 53.4 nM
- IC50 [2]: 144 nM

Compound: Cn1ccc2cc(CN3C4CC3CN(c3ccc(-c5cc(N6CCC(F)(F)C6)cn6ncc(C#N)c56)cn3)C4)cnc21
- IC50 ([1]; tested form: TFA): 8 nM

Compound: COc1ccc(CN2C3CC2CN(c2cnc(-c4cc(C5=CCNCC5)cn5ncc(C#N)c45)cn2)C3)cn1
- IC50 ([1]; tested form: TFA): 1.24 nM
- IC50 ([2]; tested form: TFA): 6.15 nM

Compound: COc1ccc(CN2C3CC2CN(c2ccc(-c4cc(C5=COCCC5)cn5ncc(C#N)c45)cn2)C3)cn1
- IC50 [1]: 2 nM

Compound: COc1cnc(CN2C3CC2CN(c2cnc(-c4cc(C5=CCOCC5)cn5ncc(C#N)c45)cn2)C3)cn1
- IC50 ([1]; tested form: TFA): 1.22 nM

Compound: N#Cc1cnn2cc(N3CC[C@H](O)C3)cc(-c3ccc(N4CC5CC(C4)N5Cc4cnc5[nH]cc(F)c5c4)nc3)c12
- IC50 ([1]; tested form: TFA): 1.64 nM

Compound: N#Cc1cnn2cc(N3CCC(F)(F)C3)cc(-c3ccc(N4CC5CC(C4)N5Cc4cnc5[nH]ccc5c4)nc3)c12
- IC50 ([1]; tested form: TFA): 1.38 nM

Compound: COc1ccc(CN2C3CC2CN(c2ccc(-c4cc(C5=CC(C)NCC5)cn5ncc(C#N)c45)cn2)C3)cn1 (centres unmarked)
- IC50 [1]: 0.29 nM
- IC50 [2]: 1.83 nM

Compound: N#Cc1cnn2cc(N3CCC(F)(F)C3)cc(-c3ccc(N4CC5CC(C4)N5Cc4ccc(C(F)(F)F)nc4)nc3)c12
- IC50 ([1]; tested form: TFA): 1.13 nM

Compound: CCN1CC=C(c2cc(-c3cnc(N4CC5CC(C4)N5Cc4ccc(OC)nc4)cn3)c3c(C#N)cnn3c2)CC1
- IC50 ([1]; tested form: TFA): 0.92 nM
- IC50 ([2]; tested form: TFA): 9.89 nM

Compound: N#Cc1cnn2cc(C3CCNC3)cc(-c3ccc(N4CCN(Cc5c(F)cccc5F)CC4)nc3)c12 (centres unmarked)
- IC50 ([1]; tested form: HCl): 146 nM
- IC50 ([2]; tested form: HCl): 2370 nM

Compound: N#Cc1cnn2cc(N3CC[C@H](O)C3)cc(-c3ccc(N4CC5CC(C4)N5Cc4cnc5[nH]ccc5c4)nc3)c12
- IC50 ([1]; tested form: TFA): 1.97 nM

Compound: N#Cc1cnn2cc(C3=CCNC3)cc(-c3ccc(N4CCN(Cc5c(F)cccc5F)CC4)nc3)c12
- IC50 ([1]; tested form: HCl): 0.56 nM
- IC50 ([2]; tested form: HCl): 5.9 nM
